Experimental findings from patent US7534808B2, “Indolylmaleimide derivatives” (priority 2002, dated 2009) are described below.

Amino acid sequences for entries named in this document (tags omitted). A change or cut given only in a name is not applied to a line headed by its entry.
UniProt Q05655, whole entry: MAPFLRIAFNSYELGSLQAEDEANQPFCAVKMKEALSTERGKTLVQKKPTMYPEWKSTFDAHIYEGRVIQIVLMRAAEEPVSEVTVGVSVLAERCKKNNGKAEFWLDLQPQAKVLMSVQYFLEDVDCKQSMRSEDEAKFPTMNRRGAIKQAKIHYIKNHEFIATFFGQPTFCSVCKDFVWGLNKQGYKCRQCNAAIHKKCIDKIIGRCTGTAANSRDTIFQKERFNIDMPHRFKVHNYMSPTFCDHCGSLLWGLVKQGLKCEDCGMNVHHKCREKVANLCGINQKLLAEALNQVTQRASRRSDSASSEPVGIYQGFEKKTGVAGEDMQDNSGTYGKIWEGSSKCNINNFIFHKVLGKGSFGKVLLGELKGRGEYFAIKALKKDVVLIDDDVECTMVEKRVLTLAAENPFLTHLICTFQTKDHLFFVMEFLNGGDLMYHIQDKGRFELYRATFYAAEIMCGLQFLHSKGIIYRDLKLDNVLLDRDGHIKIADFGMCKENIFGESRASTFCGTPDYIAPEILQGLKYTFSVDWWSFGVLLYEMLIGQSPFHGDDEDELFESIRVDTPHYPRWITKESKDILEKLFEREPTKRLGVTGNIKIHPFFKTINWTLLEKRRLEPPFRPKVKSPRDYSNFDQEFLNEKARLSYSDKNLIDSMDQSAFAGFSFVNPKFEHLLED
UniProt P24723, whole entry: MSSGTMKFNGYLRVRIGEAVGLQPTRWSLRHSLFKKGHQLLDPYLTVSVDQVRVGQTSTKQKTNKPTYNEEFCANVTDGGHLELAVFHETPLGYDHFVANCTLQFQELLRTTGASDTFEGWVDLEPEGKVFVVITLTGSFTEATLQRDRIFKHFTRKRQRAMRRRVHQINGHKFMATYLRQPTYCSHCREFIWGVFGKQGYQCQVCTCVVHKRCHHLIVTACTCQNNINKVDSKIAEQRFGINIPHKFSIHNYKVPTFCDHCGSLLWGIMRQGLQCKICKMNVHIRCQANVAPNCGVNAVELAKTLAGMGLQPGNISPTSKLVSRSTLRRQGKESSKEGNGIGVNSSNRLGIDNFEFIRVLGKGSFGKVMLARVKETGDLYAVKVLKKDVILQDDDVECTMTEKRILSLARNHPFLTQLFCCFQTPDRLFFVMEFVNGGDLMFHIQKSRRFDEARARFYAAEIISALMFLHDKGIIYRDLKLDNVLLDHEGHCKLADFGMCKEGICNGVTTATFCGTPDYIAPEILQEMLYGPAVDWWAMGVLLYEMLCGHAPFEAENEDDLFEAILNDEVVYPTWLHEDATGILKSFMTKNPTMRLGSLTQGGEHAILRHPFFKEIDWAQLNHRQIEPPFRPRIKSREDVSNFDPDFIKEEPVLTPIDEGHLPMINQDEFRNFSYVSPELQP
UniProt Q04759, whole entry: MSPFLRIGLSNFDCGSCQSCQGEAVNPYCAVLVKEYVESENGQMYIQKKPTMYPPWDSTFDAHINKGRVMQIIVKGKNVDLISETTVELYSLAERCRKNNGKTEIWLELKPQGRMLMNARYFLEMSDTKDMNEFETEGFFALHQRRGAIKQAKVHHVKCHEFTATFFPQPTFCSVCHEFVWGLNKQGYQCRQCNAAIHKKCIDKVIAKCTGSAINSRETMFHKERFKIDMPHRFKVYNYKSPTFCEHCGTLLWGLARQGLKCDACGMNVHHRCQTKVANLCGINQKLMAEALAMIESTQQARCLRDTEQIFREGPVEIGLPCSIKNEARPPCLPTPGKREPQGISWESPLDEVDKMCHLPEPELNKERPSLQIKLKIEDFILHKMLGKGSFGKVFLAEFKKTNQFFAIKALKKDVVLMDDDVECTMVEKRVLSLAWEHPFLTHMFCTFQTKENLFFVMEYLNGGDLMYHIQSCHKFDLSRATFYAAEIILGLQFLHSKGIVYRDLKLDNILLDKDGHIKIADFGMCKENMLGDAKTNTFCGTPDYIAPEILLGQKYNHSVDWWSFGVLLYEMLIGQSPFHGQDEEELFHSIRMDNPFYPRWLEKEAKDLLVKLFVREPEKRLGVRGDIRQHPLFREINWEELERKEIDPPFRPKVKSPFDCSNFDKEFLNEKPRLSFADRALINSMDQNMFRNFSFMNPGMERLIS
UniProt P05771, whole entry: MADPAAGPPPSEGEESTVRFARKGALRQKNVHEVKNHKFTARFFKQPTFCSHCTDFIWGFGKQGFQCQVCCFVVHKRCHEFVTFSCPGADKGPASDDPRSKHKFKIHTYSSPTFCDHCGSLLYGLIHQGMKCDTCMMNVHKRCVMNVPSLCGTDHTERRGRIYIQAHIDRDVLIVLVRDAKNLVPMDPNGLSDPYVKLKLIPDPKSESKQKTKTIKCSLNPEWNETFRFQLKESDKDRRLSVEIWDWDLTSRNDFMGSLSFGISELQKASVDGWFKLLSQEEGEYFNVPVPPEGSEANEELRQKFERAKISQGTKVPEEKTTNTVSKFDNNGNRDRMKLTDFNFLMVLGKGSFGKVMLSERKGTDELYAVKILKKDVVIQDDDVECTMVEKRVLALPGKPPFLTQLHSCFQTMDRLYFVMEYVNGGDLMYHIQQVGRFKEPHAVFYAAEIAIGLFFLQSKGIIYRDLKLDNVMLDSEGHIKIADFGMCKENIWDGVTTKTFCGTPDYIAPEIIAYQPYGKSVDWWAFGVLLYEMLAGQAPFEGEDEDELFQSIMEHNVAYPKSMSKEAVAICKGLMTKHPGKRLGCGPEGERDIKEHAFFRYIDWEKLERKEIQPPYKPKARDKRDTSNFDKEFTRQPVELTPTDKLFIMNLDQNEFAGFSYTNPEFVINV

One experiment concerns the target Human recombinant PKCδ (Homo sapiens, UniProt Q05655). Description: Protein Kinase Cδ Assay. On the procedure: (§1) The compounds of formula I are tested for their activity on different PKC isoforms according to a published method (D. Geiges et al. Biochem. Pharmacol. 1997; 53:865-875) The assay is performed in a 96-well polypropylene microtiterplate (Costar 3794) that has been previously siliconized with Sigmacote (Sigma SL-2). The reaction mixture (50 μl) contains 10 μl of the relevant PKC isozyme together with 25 μl of the test compound and 15 μl of a mix solution that contains 200 μg/ml protamine sulfate, 10 mM Mg(NO3)2, 10 μM ATP (Boehringer 519987) and 3750 Bq of ^33P-ATP (Hartmann Analytic SFC301, 110TBq/mmol) in 20 mM Tris-buffer pH 7.4+0.1% BSA. Incubation is performed for 15 min at 32° C. in a microtiterplate shaking incubator (Biolabo Scientific Instruments). Reaction is stopped by adding 10 μl of 0.5 M Na2EDTA, pH 7.4. 50 μl of mixture are pipetted onto a pre-wetted phosphocellulose paper (Whatmann 3698-915) under gentle pressure. Non-incorporated ATP is washed away with 100 μl bi-dist H2O. The paper is washed twice in 0.5% H3PO4 for 15 min followed by 5 min in EtOH. Thereafter the paper is dryed and placed in an omnifilter (Packard 6005219), and overlayed with 10 μl/well of Microscint-O (Packard 6013611) before counting in a Topcount radioactivity counter (Packard). […] IC50 values are calculated from the graph by sigmoidal curve fitting. […]

Experiment [1] relates to Jurkat cells transfected with a human interleukin-2 promoter/reporter gene construct. Description: CD28 Costimulation Assay. The following applies: luciferase reporter, stimulated Jurkat cells. On the procedure:
The assay is performed with Jurkat cells transfected with a human interleukin-2 promoter/reporter gene construct as described by Baumann G et al. in Transplant.Proc. 1992; 24:43-8, the β-galactosidase reporter gene being replaced by the luciferase gene (de Wet J., et al., Mol. Cell Biol. 1987, 7(2), 725-737). Cells are stimulated by solid phase-coupled antibodies or phorbol myristate acetate (PMA) and the Ca^++ ionophore ionomycin as follows. For antibody-mediated stimulation Microlite TM1 microtiter plates (Dynatech) are coated with 3 μg/ml goat anti-mouse IgG Fc antibodies (Jackson) in 55 μl phosphate-buffered saline (PBS) per well for three hours at RT. Plates are blocked after removing the antibodies by incubation with 2% bovine serum albumin (BSA) in PBS (300 μl per well) for 2 hours at RT. […] After incubation for 5.5 hours at 37° C. in 5% CO2, the level of luciferase is determined by bioluminescence measurement. […] Luciferase activity is assessed with a bioluminescence reader (Labsystem, Helsinki, Finland) after automatic addition of 50 μl per well luciferase reaction buffer containing 20 mM Tricine, 1.07 mM (MgCO3)4Mg(OH)2×5H2O, 2.67 mM MgSO4, 0.1 mM EDTA, 33.3 mM DTT, 270 μM coenzyme A, 470 μM luciferin (Chemie Brunschwig AG), 530 μM ATP, pH 7.8. […] The inhibition obtained in the presence of a test compound is calculated as percent inhibition of the high control. […]
(In a reporter assay the amount or activity of a reporter protein is the signal.)

The target in the next experiment is Human recombinant PKCα (Homo sapiens, UniProt P17252). The experiment can be described thus: Protein Kinase Cα Assay. Here is the method: as §1
Experiment [2] concerns (Wistar/F×Fischer 344)F1 hybrid rats. The experiment can be described thus: Graft v. Host Model. The following applies: 30 mg/kg/day bid, days 0-3, lymph nodes removed day 7. On the procedure: Spleen cells (2×10^7) from Wistar/F rats are injected subcutaneously into the right hind footpad of (Wistar/F×Fischer 344)F1 hybrid rats. The left footpad is left untreated. The animals are treated with the test compounds on 4 consecutive days (0-3). The popliteal lymph nodes are removed on day 7, and the weight differences between two corresponding lymph nodes are determined. The results are expressed as the inhibition of lymph node enlargement (given in percent) comparing the lymph node weight differences in the experimental groups to the weight difference between the corresponding lymph nodes from a group of animals left untreated with a test compound. In this assay, an inhibition of 100% is obtained with compound of Example 29 when administered at a dose of 30 mg/kg/day bid.

Another experiment has as its target Human recombinant PKCη (Homo sapiens, UniProt P24723). The experiment can be described thus: Protein Kinase Cη Assay. On the procedure:
as §1

Experiment [3] deals with spleen cells from CBA and BALB/c mice. The experiment can be described thus: Allogeneic Mixed Lymphocyte Reaction (MLR), two-way. To be noted: mouse two-way MLR, 3H-thymidine incorporation. On the procedure:
The two-way MLR is performed according to standard procedures (J. Immunol. Methods, 1973, 2, 279 and Meo T. et al., Immunological Methods, New York, Academic Press, 1979, 227-39). Briefly, spleen cells from CBA and BALB/c mice (1.6×10^5 cells from each strain per well in flat bottom tissue culture microtiter plates, 3.2×10^5 in total) are incubated in RPMI medium containing 10% FCS, 100 U/ml penicillin, 100 μg/ml streptomycin (Gibco BRL, Basel, Switzerland), 50 μM 2-mercaptoethanol (Fluka, Buchs, Switzerland) and serially diluted compounds. Seven three-fold dilution steps in duplicates per test compound are performed. After four days of incubation 1 μCi ^3H-thymidine is added. Cells are harvested after an additional five-hour incubation period, and incorporated ^3H-thymidine is determined according to standard procedures. Background values (low control) of the MLR are the proliferation of BALB/c cells alone. Low controls are subtracted from all values. High controls without any sample are taken as 100% proliferation. Percent inhibition by the samples is calculated, and the concentrations required for 50% inhibition (IC50 values) are determined. In this assay, Compound of Example 29 has an IC50 of 28 nM.
Background: Incorporation of labelled thymidine or its analogues reports DNA synthesis.

In the next experiment the target is Human recombinant PKCθ (Homo sapiens, UniProt Q04759). Description: Protein Kinase C θ Assay. Here is the method:
as §1

A further experiment deals with Human recombinant PKCβ1 (Homo sapiens, UniProt P05771). Description: Protein Kinase Cβ1 Assay. On the procedure: as §1

With `Cc1c(Cl)nc(N2CCN(C)CC2)nc1C1=C(c2c[nH]c3ccccc23)C(=O)NC1=O`, the half-inhibitory concentration (IC50) on Human recombinant PKCδ amounted to 20 nM; in experiment [1] it was 20 nM; on Human recombinant PKCα it was 4.3 nM; on Human recombinant PKCη, 27.4 nM; in experiment [3] it was 28 nM. In experiment [2], the “inhibition of lymph node enlargement” value turned out to be 100%.

On to `CN1CCN(c2nc(C3=C(c4c[nH]c5ccccc45)C(=O)NC3=O)cc(C(F)(F)F)n2)CC1`, for which the half-maximal inhibitory concentration (IC50) on Human recombinant PKCθ came out at 6.8 nM; at Human recombinant PKCβ1 it was 19.6 nM.

The IC50 is the midpoint of a concentration-inhibition curve.
